Values of other authors as cited in patent publication US10912841B2, “Antibody-drug-conjugate and its use for the treatment of cancer” (PIERRE FABRE MEDICAMENT, priority 2014, dated 2021).

Tests used:
[1] = tested on: Calu-3 xenograft (HER2 amplification); conditions: 15 mg/kg every 6 days (Cretella et al. 2014); cited from earlier work
[2] = tested on: JIMT-1 xenograft (HER2, resistant to Trastuzumab); conditions: 15 mg/kg every 6 days (Barok et al. 2011); cited from earlier work

Q: For TDM-1, which “Calu-3 tumor growth, published data” value [1] is on record?
A: Its value is “did not induced complete regression”.

Q: What about the “potency in JIMT-1 model, published data” value [2] of the same substance?
A: Its value is “less potent”.
